Results as given in patent US20260388712A1, “OPTIMIZED DRUG SCREENING USING ARTIFICIAL INTELLIGENCE” (published 2026).

Experiments:
[1] = tested on: fibrolamellar carcinoma (FLC); conditions: previous clinical trial(s); cited from earlier work
FLC tumor slices = experiment: Viability of FLC tumor slices treated with inhibitors; conditions: PLK1 inhibitors, 500 nM, cryopreserved slices, vs DMSO
Text: (§1) Bars represent the mean of two independent slices, and error bars denote SEM. ** p<0.01. FIG. 14B is a dose-response plot showing patient-derived primary FLC cells are sensitive to indicated PLK1 inhibitors. Onvansertib and CYC140 are clinical-grade PLK 1 inhibitors. […] Bars represent the mean of two independent slices, and error bars denote SEM. ** p<0.01, * p<0.05.
(§2) PLK1 inhibitors: Polo Like Kinases (PLK) are key regulators of centrosome maturation (Lee and Rhee, J. Cell Biol. 195:1093-1101, 2011), mitosis, and cell division (Lee et al., Development & Reproduction 18:65, 2014). Using cryopreserved FLC tumor slices and non-tumor liver tissues, the efficacies of two 2nd generation PLK1 inhibitors were measured. […] In contrast, the viability of slices prepared from the non-tumor liver from the same patient was not affected by the PLK1 inhibitor treatment. […] Whether pharmacological inhibition of PLK1 could inhibit FLC cell growth was also investigated. […] Given the encouraging results obtained from our initial experiments, we intend to further investigate the effectiveness of PLK1 inhibitors in a larger sample size of FLC cases. […]

non-tumor liver slices = experiment: Viability of non-tumor liver slices treated with inhibitors; conditions: PLK1 inhibitors, 500 nM, same patient
Text: as §1, §2

[2] = tested on: patient-derived primary FLC cells; experiment: Dose-response in patient-derived primary FLC cells; conditions: PLK1 inhibitors
Text: as §1, §2

[3] = tested on: colorectal cancer liver metastases needle biopsy cuboids; experiment: Viability of needle biopsy cuboids from colorectal cancer liver metastases; conditions: 500 nM, 48 hours
Text: FIG. 16A to FIG. 16D show drug screening in needle biopsy samples. FIG. 16A is a schematic illustrating the process of cutting 18-gauge core needle biopsy samples into 3D cuboids using a tissue chopper and placing them in U-bottom 96-well plates with viability dye. […] FIG. 16C and FIG. 16D show the response to standard-of-care drugs measured in 3D cuboids generated from liver tumor (FIG. 16C) or cholangiocarcinoma sample (FIG. 16D), with each bar representing the mean of at least 2-3 wells. Each well contained at least three cuboids. Error bars represent SEM.
Responses to 25-40 drugs using tissues obtained from a single needle biopsy were successfully assessed in less than five days. This approach involves mechanically cutting the needle biopsy samples into ~400 μm-wide cuboidal-shaped micro-dissected tissues, resulting in 300-1000 cuboids per sample. These cuboids are placed in hydrogel-coated, 96-well U-bottom plates with Realtime-glo viability detection reagent, with each well containing at least three cuboids (see FIG. 16A).
Responses to standard-of-care chemotherapy drugs in needle biopsies from colorectal cancer liver metastases were also evaluated. Needle biopsy cuboids were treated with chemotherapy drugs as single agents (500 nM) or in combination (250 nM for each drug). Staurosporine (STS) was used as a positive control. […]

[4] = tested on: Wnt-driven TCF activity (canonical Wnt pathway); experiment: TCF activity (TOPFLASH luciferase) in HEK293 STF cells treated with Wnt3a; conditions: 2.5 μM, 24 hours, luciferase assay, FIG. 11E
Protocol: FIG. 11A to FIG. 11E show identification and validation of inhibitors and activators of the Wnt pathway using a principal drug set to predict cellular responses to a full diversity set. FIG. 11A is a schematic showing the Wnt-dependent activation of β-catenin-TCF. FIG. 11B is an illustration showing the overall experimental design using HEK293 super topflash cells (STF). Cells were treated with the principal drug set in the presence of Wnt3a, and TCF activity was measured 24 hours later. The resulting data was used for CNN modeling. FIG. 11C is a plot showing the accuracy of the CNN model in predicting response to the training dataset (254 drugs).
Wnt proteins are growth factors that play a crucial role in various biological processes, such as proliferation, migration, and differentiation (see Nusse, Cold Spring Harbor Perspectives in Biology 4:a011163, 2012; Steinhart and Angers, Development 145:dev146589, 2018). Abnormal activation of Wnt signaling has been linked to human developmental disorders and several types of cancer, including colon, skin, brain, and prostate cancer (see Zhan et al., Oncogene 36:1461-1473, 2017). […] The TOPFLASH (TCF binding site) luciferase reporters (see Biechele and Moon, Wnt Signaling: Pathway Methods and Mammalian Models, 99-110, 2008) in HEK293 cells can be used to quantitatively monitor-catenin-dependent transcription (see FIG. 11A). […]

[5] = tested on: Wnt signaling in RKO cells; experiment: Validation of Wnt pathway effects in independent RKO cells; conditions: data not shown
Protocol: To identify chemical modulators of Wnt signaling, HEK293 STF cells were treated with Wnt3a in the presence of 254 principal set drugs at a concentration of 2.5 μM (see FIG. 11B). A negative control of DMSO was used. TCF activity was measured 24 hours after drug treatment using luciferase assay, and the resulting changes in TCF activity in response to the 254 principal drug set were used as the output. Meanwhile, the responses to the 254 principal drug set in 475 cancer cell lines were used as input to generate CNN models, and hyperparameter tuning with ten-fold cross-validation was used to evaluate the accuracy of the predictions (see FIG. 11C). The optimized hyperparameters were then used to predict responses to the full 3897 Diversity drug set (see FIG. 11D). […] GSK3β is known to phosphorylate and target β-catenin for proteasomal degradation (see Steinhart and Angers, supra). Therefore, GSK3β inhibition can lead to increased B-catenin levels and enhanced TCF-mediated transcription. […]

| Compound | cuboid viability, single agent [3] | activated TCF activity [4] [fold] | effect on Wnt signaling in RKO cells (in words) [5] | further results |
| --- | --- | --- | --- | --- |
| Cc1cc(Nc2cc(N3CCN(C)CC3)nc(/C=C/c3ccccc3)n2)n[nH]1 |  |  |  | clinical outcome [1]: failed in the clinic |
| CN1CCN(c2ccc(OC(F)(F)F)c(Nc3ncc4c(n3)-c3c(c(C(N)=O)nn3CCO)CC4)c2)CC1 |  |  |  | viability of FLC tumor slices (FLC tumor slices): significantly decrease the viability; viability of non-tumor liver slices (non-tumor liver slices): not affected; growth inhibition / sensitivity of primary FLC cells, in words ([2]; dose-response): outperforming the response of BI-2536; EC50 ([2]; growth of patient-derived primary FLC cells): 25 nM |
| CCc1c2c(nc3ccc(O)cc13)-c1cc3c(c(=O)n1C2)COC(=O)[C@]3(O)CC | significant decrease in cuboid viability |  |  |  |
| COc1cc2nc(N3CCN(C(=O)c4ccco4)CC3)nc(N)c2cc1OC |  | > 1500 | validated |  |
| CNC(=C[N+](=O)[O-])NCCSCc1ccc(CN(C)C)o1 |  | > 1500 | validated |  |
| N[C@@H]1CCCC[C@H]1N.[Pt+2] | no change in cuboid viability |  |  |  |
